Where two headings read alike, the source gives them in different places.
Assays:
human CXCR4 = target: T1, human CXCR4 (Homo sapiens, UniProt P61073); assay: Competitive binding assay to human CXCR4, Jurkat cells, [125I]FC131 radioligand; conditions: [^125I]FC131 0.1 nM, RT 2 h, mean ± SD (n = 3)
T1 construct: using CXCR4 positive Jurkat human T-cell leukemia cells; endogenous in cells; host or cells: Jurkat human T-cell leukemia cells

Chains of the proteins cited; added tags and fusions are not shown.
UniProt P61073, whole entry: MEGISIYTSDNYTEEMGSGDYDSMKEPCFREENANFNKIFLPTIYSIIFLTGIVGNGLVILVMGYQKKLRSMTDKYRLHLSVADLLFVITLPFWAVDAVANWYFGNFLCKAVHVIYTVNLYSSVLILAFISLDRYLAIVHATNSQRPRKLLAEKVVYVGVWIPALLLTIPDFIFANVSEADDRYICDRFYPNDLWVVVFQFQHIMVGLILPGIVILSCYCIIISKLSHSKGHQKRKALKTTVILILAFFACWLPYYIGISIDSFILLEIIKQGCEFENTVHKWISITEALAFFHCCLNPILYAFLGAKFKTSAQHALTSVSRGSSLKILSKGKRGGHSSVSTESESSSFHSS
UniProt P70658, whole entry: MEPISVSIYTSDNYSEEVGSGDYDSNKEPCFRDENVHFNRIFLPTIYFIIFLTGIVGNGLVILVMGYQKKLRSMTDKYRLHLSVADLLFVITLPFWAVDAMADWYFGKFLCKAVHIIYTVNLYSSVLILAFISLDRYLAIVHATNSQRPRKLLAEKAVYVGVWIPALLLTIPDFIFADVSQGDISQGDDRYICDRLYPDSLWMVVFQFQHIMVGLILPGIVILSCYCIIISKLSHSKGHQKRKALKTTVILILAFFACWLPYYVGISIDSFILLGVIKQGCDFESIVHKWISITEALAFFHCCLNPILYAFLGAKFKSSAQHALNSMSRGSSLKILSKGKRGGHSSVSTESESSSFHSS

murine CXCR4 = target: T2, murine CXCR4 (Mus musculus, UniProt P70658); assay: Competitive binding assay to murine CXCR4, Eμ-Myc1080 cells, [125I]CPCR4.3 radioligand; conditions: Eμ-Myc1080 mouse B-cell lymphoma cells
T2 construct: The murine CXCR4 expressing cell line Ep-Myc1080; endogenous in cells; host or cells: Eμ-Myc1080 mouse B-cell lymphoma cells
Procedure: Competition studies addressing the human CXCR4 were performed using CXCR4 positive Jurkat human T-cell leukemia cells and ^125I-FC131 (^125I-2), addressing the murine CXCR4, Ep-Myc1080 mouse B-cell lymphoma cells and ^125I-CPCR4.3 (Demmer et al. A Conformationally Frozen Peptoid Boosts CXCR4 Affinity and Anti-HIV Activity. Angewandte Chemie International Edition. 2012; 51:8110-8113) as the radioligand were utilized as described previously (Poschenrieder et al., The influence of different metal-chelate conjugates of pentixafor on the CXCR4 affinity. EJNMMI research. 2016; 6:1-8).
The binding affinities (IC50) of the respective ^natLu and ^natGa derivatives towards the human and murine CXCR4 (Table 1a) were determined in a competitive binding assay using Jurkat human T-cell leukemia cells or Ep-Myc1080 mouse B-cell lymphoma cells (4.0 and 2.0*10^5 cells/well, 2 h, RT) and ^125I-2 or ^125I-CPCR4.3 (0.1 nM) as the radioligand. To be able to assess the effect of structural modifications in the SAR study on CXCR4 binding affinity, data for ^natGa-pentixafor (^natGa-3) and ^natLu-pentixather (^natLu-4) are also included in Table 1a.

[1] = ^natGa complexes, read-out: IC50 [nM] for ^natGa-complexes and human CXCR4
[2] = ^natLu complexes, mean ± SD (n = 3), 120 min, read-out: mIC50[nM] ^natLu complexes and murine CXCR4
[3] = Table 1c, read-out: IC50 [nM] to mCXCR4
[4] = ^natLu complexes, read-out: IC50 [nM] for ^natLu-complexes and human CXCR4

| Substance | IC50 (human CXCR4; [1]) [nM] | IC50 (murine CXCR4; [2]) [nM] | IC50 (murine CXCR4; [3]) [nM] | IC50 (human CXCR4; [4]) [nM] |
| --- | --- | --- | --- | --- |
| cyclo(D-3-iodo-Tyr^1-D-[NMe]Orn^2(AMBS-DOTA)-Arg^3-Nal^4-Gly^5) [compound 4, reference compound] | 6.1 ± 1.5 | 567 ± 62 |  |  |
| cyclo[i-yorn′(DOTA-rG-(4-amino)benzoyl-)RNaIG [P4] |  | 37.1 ± 2.9 | 48.5 ± 0.5 |  |
| cyclo[i-yorn′(DOTA-ra-(4-amino)benzoyl-)RNaIG [P5] |  | 48.5 ± 0.5 | 61.4 ± 17 |  |
| cyclo[i-yorn′([^natLu]DOTA-dapG-(4-amino)benzoyl-)RNaIG [^natLu-P2] |  |  |  | 3.5 ± 0.3 |
| cyclo[i-yorn′([^natLu]DOTA-ra-(4-amino)benzoyl-)RNaIG [^natLu-P5] |  | 48.5 ± 0.5 |  | 1.7 ± 0.6 |
| cyclo[yorn′([^natGa]DOTA-ra-(4-amino)benzoyl-)RNaIG [^natGa-P5b] | 0.4 ± 0.1 |  |  |  |
